Legend:
[1] = Toxicity/tolerability (body weight change, mortality, gross observation) in HT-29 xenograft mice; type: in vivo; conditions: self-limiting even under continuous treatment
[2] = test system: human HT-29 cell xenografts; test: Antitumor activity (tumor growth inhibition, regression) in mice with human HT-29 colorectal cancer xenografts; type: in vivo; conditions: baseline at start of treatment (day 11 post implant)
Description: Mice were implanted with human HT-29 cell xenografts. The mice, cell line used, and implantation are described below.
Tumor measurements were taken once or twice per week. All animals were individually followed throughout the experiment.

cetuximab
EGFR inhibitor related skin rash [1]: common | Mean Tumor Volume (mm^3) Start Study [2]: 132.09 mm^3

— US20120045433A1, “COMBINATION THERAPY” (priority 2010, published 2012)
